Patent publication US20060160798A1, “Viral polymerase inhibitors” (Boehringer Ingelheim (Canada) Ltd., priority 2001, published 2006)

These compounds were tested against hepatitis C virus RNA dependant polymerase (NS5B) (Hepatitis C virus genotype 1b, UniProt P26663) (assay: biochemical). Conditions: IC50, Table 6.
In the case of `Cc1cccc(-c2c(C3CCCC3)c3ccc(C(=O)NC4(C(=O)Nc5ccc(/C=C/C(=O)O)cc5)CCN(C)CC4)cc3n2C)n1` [Entry 6058], the IC50 is reported as < 500 nM.
With `CN1CCC(NC(=O)c2ccc3c(C4CCCC4)c(-c4cccc(N)n4)n(C)c3c2)(C(=O)Nc2ccc(/C=C/C(=O)O)cc2)CC1` [Entry 6059] the IC50 was < 500 nM.
`Cc1ccc(-c2c(C3CCCC3)c3ccc(C(=O)NC4(C(=O)Nc5ccc(/C=C/C(=O)O)cc5)CCCC4)cc3n2C)nc1` [Entry 6060] was tested, and the IC50 was < 500 nM.
For `Cc1ccc(-c2c(C3CCCC3)c3ccc(C(=O)NC4(C(=O)Nc5ccc(/C=C/C(=O)O)cc5)CCCC4)cc3n2C)cn1` [Entry 6061], the IC50 was < 500 nM.
In the case of `Cc1ccc(-c2c(C3CCCC3)c3ccc(C(=O)NC4(C(=O)Nc5ccc(/C=C/C(=O)O)cc5)CCN(C)CC4)cc3n2C)cn1` [Entry 6062], the IC50 is reported as < 500 nM.
`Cn1c(-c2cnccn2)c(C2CCCC2)c2ccc(C(=O)NC3(C(=O)Nc4ccc(/C=C/C(=O)O)cc4)CCCC3)cc21` [Entry 6063] was tested, and the IC50 was < 500 nM.
`Cn1c(-c2ccccn2)c(C2CCCC2)c2ccc(C(=O)NC3(C(=O)Nc4ccc(/C=C/C(=O)O)cc4)CCC3)cc21` [Entry 6064] was tested, and the IC50 was < 500 nM.
For `CN1CCC(NC(=O)c2ccc3c(C4CCCC4)c(-c4cnccn4)n(C)c3c2)(C(=O)Nc2ccc(/C=C/C(=O)O)cc2)CC1` [Entry 6065], the IC50 was < 500 nM.
Compound `CCc1ccnc(-c2c(C3CCCC3)c3ccc(C(=O)NC4(C(=O)Nc5ccc(/C=C/C(=O)O)cc5)CCCC4)cc3n2C)c1` [Entry 6067] has an IC50 of 1000 to 10000 nM.
For `CCc1ccnc(-c2c(C3CCCC3)c3ccc(C(=O)NC4(C(=O)Nc5ccc(/C=C/C(=O)O)cc5)CCN(C)CC4)cc3n2C)c1` [Entry 6068], the IC50 was < 500 nM.
For `Cc1cccc(-c2c(C3CCCC3)c3ccc(C(=O)NC4(C(=O)Nc5ccc(/C=C/C(=O)O)cc5)CCC4)cc3n2C)n1` [Entry 6069], the IC50 was < 500 nM.
For `Cn1c(-c2cscn2)c(C2CCCC2)c2ccc(C(=O)NC3(C(=O)Nc4ccc(/C=C/C(=O)O)cc4)CCC3)cc21` [Entry 6070], the IC50 was < 500 nM.
For `CC(=O)Nc1nc(-c2c(C3CCCC3)c3ccc(C(=O)NC4(C(=O)Nc5ccc(/C=C/C(=O)O)cc5)CCC4)cc3n2C)cs1` [Entry 6071], the IC50 was < 500 nM.
With `CNc1nc(-c2c(C3CCCC3)c3ccc(C(=O)NC4(C(=O)Nc5ccc(/C=C/C(=O)O)cc5)CCC4)cc3n2C)cs1` [Entry 6072] the IC50 was < 500 nM.
`CCNc1nc(-c2c(C3CCCC3)c3ccc(C(=O)NC4(C(=O)Nc5ccc(/C=C/C(=O)O)cc5)CCC4)cc3n2C)cs1` [Entry 6073] was tested, and the IC50 was < 500 nM.
With `Cn1c(-c2csc(N)n2)c(C2CCCC2)c2ccc(C(=O)NC3(C(=O)Nc4ccc(/C=C/C(=O)O)cc4)CCC3)cc21` [Entry 6074] the IC50 was < 500 nM.
In the case of `Cc1nc(-c2c(C3CCCC3)c3ccc(C(=O)NC4(C(=O)Nc5ccc(/C=C/C(=O)O)cc5)CCC4)cc3n2C)cs1` [Entry 6075], the IC50 is reported as < 500 nM.
In the case of `CCCNc1nc(-c2c(C3CCCC3)c3ccc(C(=O)NC4(C(=O)Nc5ccc(/C=C/C(=O)O)cc5)CCC4)cc3n2C)cs1` [Entry 6076], the IC50 is reported as < 500 nM.
For `COCCNc1nc(-c2c(C3CCCC3)c3ccc(C(=O)NC4(C(=O)Nc5ccc(/C=C/C(=O)O)cc5)CCC4)cc3n2C)cs1` [Entry 6077], the IC50 was < 500 nM.
`Cn1c(-c2csc(NCCN3CCCCC3)n2)c(C2CCCC2)c2ccc(C(=O)NC3(C(=O)Nc4ccc(/C=C/C(=O)O)cc4)CCC3)cc21` [Entry 6078] was tested, and the IC50 was < 500 nM.
In the case of `CC(C)C(=O)Nc1nc(-c2c(C3CCCC3)c3ccc(C(=O)NC4(C(=O)Nc5ccc(/C=C/C(=O)O)cc5)CCC4)cc3n2C)cs1` [Entry 6079], the IC50 is reported as < 500 nM.
With `Cn1c(-c2csc(NC(=O)CC(C)(C)C)n2)c(C2CCCC2)c2ccc(C(=O)NC3(C(=O)Nc4ccc(/C=C/C(=O)O)cc4)CCC3)cc21` [Entry 6080] the IC50 was < 500 nM.
With `Cn1c(-c2csc(NC(=O)C(C)(C)C)n2)c(C2CCCC2)c2ccc(C(=O)NC3(C(=O)Nc4ccc(/C=C/C(=O)O)cc4)CCC3)cc21` [Entry 6081] the IC50 was < 500 nM.
With `CN(C)CCNc1nc(-c2c(C3CCCC3)c3ccc(C(=O)NC4(C(=O)Nc5ccc(/C=C/C(=O)O)cc5)CCC4)cc3n2C)cs1` [Entry 6082] the IC50 was < 500 nM.
For `Cn1c(-c2cocn2)c(C2CCCC2)c2ccc(C(=O)NC3(C(=O)Nc4ccc(/C=C/C(=O)O)cc4)CCC3)cc21` [Entry 6083], the IC50 was < 500 nM.
In the case of `C=Cc1c(C2CCCC2)c2ccc(C(=O)NC3(C(=O)Nc4ccc(/C=C/C(=O)O)cc4)CCC3)cc2n1C` [Entry 6084], the IC50 is reported as < 500 nM.
For `Cn1c(-c2cscn2)c(C2CCCC2)c2ccc(C(=O)NC3(C(=O)Nc4ccc(/C=C/C(=O)O)cc4)CCCC3)cc21` [Entry 6085], the IC50 was < 500 nM.
With `CC(=O)Nc1nc(-c2c(C3CCCC3)c3ccc(C(=O)NC4(C(=O)Nc5ccc(/C=C/C(=O)O)cc5)CCCC4)cc3n2C)cs1` [Entry 6086] the IC50 was < 500 nM.
For `CNc1nc(-c2c(C3CCCC3)c3ccc(C(=O)NC4(C(=O)Nc5ccc(/C=C/C(=O)O)cc5)CCCC4)cc3n2C)cs1` [Entry 6087], the IC50 was < 500 nM.
With `CCNc1nc(-c2c(C3CCCC3)c3ccc(C(=O)NC4(C(=O)Nc5ccc(/C=C/C(=O)O)cc5)CCCC4)cc3n2C)cs1` [Entry 6088] the IC50 was < 500 nM.
`Cn1c(-c2csc(N)n2)c(C2CCCC2)c2ccc(C(=O)NC3(C(=O)Nc4ccc(/C=C/C(=O)O)cc4)CCCC3)cc21` [Entry 6089] was tested, and the IC50 was < 500 nM.
In the case of `Cc1nc(-c2c(C3CCCC3)c3ccc(C(=O)NC4(C(=O)Nc5ccc(/C=C/C(=O)O)cc5)CCCC4)cc3n2C)cs1` [Entry 6090], the IC50 is reported as < 500 nM.
In the case of `CCCNc1nc(-c2c(C3CCCC3)c3ccc(C(=O)NC4(C(=O)Nc5ccc(/C=C/C(=O)O)cc5)CCCC4)cc3n2C)cs1` [Entry 6091], the IC50 is reported as < 500 nM.
`COCCNc1nc(-c2c(C3CCCC3)c3ccc(C(=O)NC4(C(=O)Nc5ccc(/C=C/C(=O)O)cc5)CCCC4)cc3n2C)cs1` [Entry 6092] was tested, and the IC50 was < 500 nM.
`Cn1c(-c2csc(NCCN3CCCCC3)n2)c(C2CCCC2)c2ccc(C(=O)NC3(C(=O)Nc4ccc(/C=C/C(=O)O)cc4)CCCC3)cc21` [Entry 6093] was tested, and the IC50 was < 500 nM.
With `CC(C)C(=O)Nc1nc(-c2c(C3CCCC3)c3ccc(C(=O)NC4(C(=O)Nc5ccc(/C=C/C(=O)O)cc5)CCCC4)cc3n2C)cs1` [Entry 6094] the IC50 was < 500 nM.
`Cn1c(-c2csc(NC(=O)CC(C)(C)C)n2)c(C2CCCC2)c2ccc(C(=O)NC3(C(=O)Nc4ccc(/C=C/C(=O)O)cc4)CCCC3)cc21` [Entry 6095] was tested, and the IC50 was < 500 nM.
In the case of `Cn1c(-c2csc(NC(=O)C(C)(C)C)n2)c(C2CCCC2)c2ccc(C(=O)NC3(C(=O)Nc4ccc(/C=C/C(=O)O)cc4)CCCC3)cc21` [Entry 6096], the IC50 is reported as < 500 nM.
For `CN(C)CCNc1nc(-c2c(C3CCCC3)c3ccc(C(=O)NC4(C(=O)Nc5ccc(/C=C/C(=O)O)cc5)CCCC4)cc3n2C)cs1` [Entry 6097], the IC50 was < 500 nM.
For `Cn1c(-c2cocn2)c(C2CCCC2)c2ccc(C(=O)NC3(C(=O)Nc4ccc(/C=C/C(=O)O)cc4)CCCC3)cc21` [Entry 6098], the IC50 was < 500 nM.
For `C=Cc1c(C2CCCC2)c2ccc(C(=O)NC3(C(=O)Nc4ccc(/C=C/C(=O)O)cc4)CCCC3)cc2n1C` [Entry 6099], the IC50 was < 500 nM.
In the case of `CN1CCC(NC(=O)c2ccc3c(C4CCCC4)c(-c4nccs4)n(C)c3c2)(C(=O)Nc2ccc(/C=C/C(=O)O)cc2)CC1` [Entry 6101], the IC50 is reported as < 500 nM.
`CN1CCC(NC(=O)c2ccc3c(C4CCCC4)c(-c4cccc(N)c4)n(C)c3c2)(C(=O)Nc2ccc(/C=C/C(=O)O)cc2)CC1` [Entry 6102] was tested, and the IC50 was < 500 nM.
`Cc1ccc(-c2c(C3CCCC3)c3ccc(C(=O)NC4(C(=O)Nc5ccc(/C=C/C(=O)O)cc5)CCN(C)CC4)cc3n2C)nc1` [Entry 6103] was tested, and the IC50 was < 500 nM.
For `CNC(=O)c1c(C2CCCC2)c2ccc(C(=O)NC3(C(=O)Nc4ccc(/C=C/C(=O)O)cc4)CCCC3)cc2n1C` [Entry 6106], the IC50 was 500 to 1000 nM.
`CN(C)C(=O)c1c(C2CCCC2)c2ccc(C(=O)NC3(C(=O)Nc4ccc(/C=C/C(=O)O)cc4)CCCC3)cc2n1C` [Entry 6107] was tested, and the IC50 was 1000 to 10000 nM.
Compound `Cn1c(C(=O)NCc2ccccc2)c(C2CCCC2)c2ccc(C(=O)NC3(C(=O)Nc4ccc(/C=C/C(=O)O)cc4)CCCC3)cc21` [Entry 6110] has an IC50 of 1000 to 10000 nM.
For `Cn1c(-c2ncccn2)c(C2CCCC2)c2ccc(C(=O)NC3(C(=O)Nc4ccc(/C=C/C(=O)O)cc4)CCC3)cc21` [Entry 6111], the IC50 was < 500 nM.
Compound `Cn1c(C(=O)Nc2ccccc2)c(C2CCCC2)c2ccc(C(=O)NC(C)(C)C(=O)Nc3ccc(/C=C/C(=O)O)cc3)cc21` [Entry 6112] has an IC50 of 500 to 1000 nM.
`Cn1c(C(N)=O)c(C2CCCC2)c2ccc(C(=O)NC(C)(C)C(=O)Nc3ccc(/C=C/C(=O)O)cc3)cc21` [Entry 6113] showed an IC50 of 500 to 1000 nM.
With `Cc1ccc(-c2c(C3CCCC3)c3ccc(C(=O)N[C@@]4(C(=O)Nc5ccc(/C=C/C(=O)O)cc5)CCN(C)C4)cc3n2C)nc1` [Entry 6114] the IC50 was < 500 nM.
For `Cc1ccc(-c2c(C3CCCC3)c3ccc(C(=O)N[C@@]4(C(=O)Nc5ccc(/C=C/C(=O)O)cc5)CCN(C)C4)cc3n2C)cn1` [Entry 6115], the IC50 was < 500 nM.
`Cc1cccc(-c2c(C3CCCC3)c3ccc(C(=O)N[C@@]4(C(=O)Nc5ccc(/C=C/C(=O)O)cc5)CCN(C)C4)cc3n2C)n1` [Entry 6116] was tested, and the IC50 was < 500 nM.
Work on `Cn1cc(C2CCCC2)c2ccc(C(=O)NC3(C(=O)Nc4ccc(/C=C/C(=O)O)cc4)CCC3)cc21` [Entry 6119] yielded an IC50 of 1000 to 10000 nM.
`Cn1c(Br)c(C2CCCC2)c2ccc(C(=O)NC3(C(=O)Nc4ccc(/C=C/C(=O)O)cc4)CCC3)cc21` [Entry 6120] was tested, and the IC50 was 500 to 1000 nM.
`O=C(O)/C=C/c1ccc(NC(=O)C2(NC(=O)c3ccc4c(C5CCCC5)c(-c5ccccn5)[nH]c4c3)CCC2)cc1` [Entry 6121] was tested, and the IC50 was 500 to 1000 nM.
In the case of `COc1ccc(-c2c(C3CCCC3)c3ccc(C(=O)NC4(C(=O)Nc5ccc(/C=C/C(=O)O)cc5)CCC4)cc3n2C)nc1` [Entry 6123], the IC50 is reported as < 500 nM.
For `Cn1c(-c2ccccn2)c(C2CCCC2)c2ccc(C(=O)N[C@@]3(C(=O)Nc4ccc(/C=C/C(=O)O)cc4)CCN(S(C)(=O)=O)C3)cc21` [Entry 6124], the IC50 was < 500 nM.
`Cn1c(-c2ccccn2)c(C2CCCC2)c2ccc(C(=O)NC3(C(=O)Nc4ccc(/C=C/C(=O)O)cc4)CCN(S(C)(=O)=O)CC3)cc21` [Entry 6125] was tested, and the IC50 was < 500 nM.

Same assay, conditions: IC50, Table 7
In the case of `Cc1cc(NC(=O)C2(NC(=O)c3ccc4c(C5CCCC5)c(-c5ccccn5)n(C)c4c3)CCC2)ccc1/C=C/C(=O)O` [Entry 7001], the IC50 is reported as < 500 nM.
In the case of `Cn1c(-c2ccccn2)c(C2CCCC2)c2ccc(C(=O)NC3(C(=O)NCc4ccc(C(=O)O)cc4)CCC3)cc21` [Entry 7003], the IC50 is reported as 1000 to 10000 nM.
